The target of this test is Smurf-1 (Homo sapiens (Human), UniProt Q9HCE7). Description: HECT E3 ligase autoubiquitinylation TR-FRET assay (Smurf-1). Type of test: biochemical. The text has this: To determine the HECT E3 ligase selectivity of the compounds, a panel of biochemical HECT E3 ligase autoubiquitinylation assays was employed (Smurf-1, Smurf-2, WWP1, WWP2, ITCH, Nedd4, Nedd4L and E6AP). The conjugation of ubiquitin to a protein substrate is a multistep process. In an initial ATP-requiring step, a thioester bond is formed between the carboxyl terminus of ubiquitin and an internal cystein residue of the ubiquitin-activating enzyme (E1). Activated ubiquitin is then transferred to a specific cystein residue of an ubiquitin-conjugating enzyme (E2). E2s donate ubiquitin to a HECT E3 ligase (E3) from which it is transferred to the substrate protein. HECT E3 ligases can auto-ubiquitinylate. This event is detected in the TR-FRET (Time-Resolved Fluorescence Resonance Energy Transfer) assay used in this panel. The reaction mix contains E1, E2, tagged-E3, biotin-conjugated ubiquitin, the compound and ATP in a suitable buffer and is incubated for 45 minutes to allow auto-ubiquitinylation of the E3 ligase. […] When these two fluorophores are brought together by a biomolecular interaction (in this case ubiquitinylation of the E3 ligase), a portion of the energy captured by the Cryptate during excitation is released through fluorescence emission at 620 nm, while the remaining energy is transferred to XL665. This energy is then released by XL665 as specific fluorescence at 665 nm. […]
In general terms: TR-FRET usually uses a lanthanide donor and a delayed reading to cut background.

Amino acid sequences for entries named in this document (tags omitted).
UniProt Q9HCE7, whole entry: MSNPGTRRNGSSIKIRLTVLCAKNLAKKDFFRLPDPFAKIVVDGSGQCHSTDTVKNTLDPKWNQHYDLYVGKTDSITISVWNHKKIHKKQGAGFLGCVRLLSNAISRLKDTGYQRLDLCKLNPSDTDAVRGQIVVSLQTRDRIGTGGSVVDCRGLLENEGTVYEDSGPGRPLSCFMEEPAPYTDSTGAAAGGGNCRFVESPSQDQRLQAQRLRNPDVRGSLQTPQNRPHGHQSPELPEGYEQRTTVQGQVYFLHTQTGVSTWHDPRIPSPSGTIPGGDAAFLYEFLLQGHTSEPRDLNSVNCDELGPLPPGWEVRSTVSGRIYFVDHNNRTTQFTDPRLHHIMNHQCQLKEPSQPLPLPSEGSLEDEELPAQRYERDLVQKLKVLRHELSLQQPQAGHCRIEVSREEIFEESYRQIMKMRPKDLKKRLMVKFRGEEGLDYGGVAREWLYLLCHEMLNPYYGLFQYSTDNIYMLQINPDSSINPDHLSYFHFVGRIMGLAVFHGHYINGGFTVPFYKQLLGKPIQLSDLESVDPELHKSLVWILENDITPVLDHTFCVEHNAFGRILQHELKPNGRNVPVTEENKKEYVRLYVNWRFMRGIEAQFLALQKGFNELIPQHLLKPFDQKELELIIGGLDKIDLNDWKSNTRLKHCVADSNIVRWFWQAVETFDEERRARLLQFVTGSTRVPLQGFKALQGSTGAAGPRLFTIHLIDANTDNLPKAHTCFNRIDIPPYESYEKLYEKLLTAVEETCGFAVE

A word on the IC50: it is the point on the concentration scale where inhibition reaches its midpoint.

Take “5-((2R,4S)-4-(2-bromopropan-2-yl)tetrahydrofuran-2-yl)-N-(2-cyclohexyl-1,5-dimethyl-3-oxo-2,3-dihydro-1H-pyrazol-4-yl)-4-methylisoxazole-3-carboxamide and 5-((2S,4R)-4-(2-bromopropan-2-yl)tetrahydrofuran-2-yl)-N-(2-cyclohexyl-1,5-dimethyl-3-oxo-2,3-dihydro-1H-pyrazol-4-yl)-4-methylisoxazole-3-carboxamide [Example 23]”: half-maximal inhibition (IC50) was put at 160 nM.

Values taken from patent US10195181B2, “Carboxamide derivatives” (Novartis AG, priority 2014, dated 2019).
